{"source": "patent US20230390406A1", "about": "“Star Polymer Drug Conjugates” (Vaccitech North America, Inc., priority 2020, published 2023)", "test": "Turbidity (OD 490 nm) / solubility in PBS buffer at different pH", "type": "physicochemical", "text": "FIGS. 7 and 8 show turbidity for different polymer arms in PBS buffer over a pH range of 5.5 to 7.5.\nCompounds 105-109 were designed to be negatively charged and soluble in aqueous buffer at physiologic pH, pH 7.4; however, at reduced pH, e.g., within an acidic tumor environment, the conjugate base of the carboxylic acid becomes protonated leading to reduced charge as well as reduced solubility of the polymer arms, which can be observed by measuring turbidity (OD at 490 nm). The turbidity of Compounds 100 and 105-109 in PBS buffer at pH ranging from 5.0 to 8.0 was conducted by first dissolving compounds in DMSO as a 40 mg/mL stock solution, then diluted to 0.5 mg/mL in 1×PBS titrated that was titrated with either HCl or NaOH to adjust the pH.\nCompounds 110-131 were first characterized by UV-Vis (OD 490 nm) and DLS (dynamic light scattering) to assess their solubility and surface charge (zeta potential) in PBS buffer at physiologic pH. The sample preparation and characterization process were the same as described for Compound 109. […] Upon introduction of D2 comprising amphiphilic or hydrophobic drug molecules, i.e., Naph, 2BXy and diABZI, the polymer arm remained anionic across the DMBA mol % range. […]"}
{"substance": "N3-poly[(HPMA-co-Ma-b-Ala-2BXy)-b-(HPMA-co-Ma-propyl-NH2)]-Pg [Compound 68]", "values": [{"measurement": "Turbidity at pH 6.5", "value": 0.039}, {"measurement": "Turbidity at pH 7.4", "value": 0.039}]}
